{"source": "patent US20020103261A1", "about": "“Compositions for injection or intravenous administration for the treatment of internal infection or inflammation in humans and animals” (priority 2000, published 2002)", "origin": "cited, not measured here", "conditions": "inactive metabolites after enzymatic degradation; cited from earlier work", "data": [{"smiles": "Cc1ccc(C(C)C)c(O)c1", "note": "[isopropyl-cresol, 5-methyl-2[1-methylethyl]phenol]", "values": [{"measurement": "metabolites excreted in the urine", "value": "approx. 90%"}]}]}
